The test system of this assay is HepG2 cells.

The structures appear in SMILES notation.

Regarding `CO[C@H]1/C=C/O[C@@]2(C)Oc3c(C)c(O)c4c(O)c(c(/C=N/N5CCN(C)CC5)c(O)c4c3C2=O)NC(=O)/C(C)=C\C=C\[C@H](C)[C@H](O)[C@@H](C)[C@@H](O)[C@@H](C)[C@H](OC(C)=O)[C@@H]1C` [Rifampin, reference compound], the Selective index is recorded as 125,000.

These data come from PMC6153800, “Structure-Based Drug Design and Characterization of Sulfonyl-Piperazine Benzothiazinone Inhibitors of DprE1 from Mycobacterium tuberculosis” (Antimicrobial Agents and Chemotherapy, 2018).
